Experimental data from paper PMC9596378, “Discovery and molecular basis of subtype-selective cyclophilin inhibitors” (Nature Chemical Biology, 2022).
Like-named read-outs stand apart in the source and are kept apart here.

The chains behind the UniProt entries cited, without tags or fusion partners. Residues count along the entry.
UniProt Q9UNP9, 131-301 limits assumed: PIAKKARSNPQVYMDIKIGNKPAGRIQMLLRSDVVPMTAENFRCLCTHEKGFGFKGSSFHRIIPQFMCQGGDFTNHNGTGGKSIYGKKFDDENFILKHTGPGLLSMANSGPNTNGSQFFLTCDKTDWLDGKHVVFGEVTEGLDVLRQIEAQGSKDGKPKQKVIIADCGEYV
UniProt P23284, 34-216 limits assumed: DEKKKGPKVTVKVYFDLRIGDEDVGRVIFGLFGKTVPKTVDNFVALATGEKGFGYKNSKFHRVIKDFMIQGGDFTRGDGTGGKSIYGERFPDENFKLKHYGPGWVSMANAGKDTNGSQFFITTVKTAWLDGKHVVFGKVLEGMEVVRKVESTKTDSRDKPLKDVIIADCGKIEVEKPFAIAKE
UniProt O43447, whole entry: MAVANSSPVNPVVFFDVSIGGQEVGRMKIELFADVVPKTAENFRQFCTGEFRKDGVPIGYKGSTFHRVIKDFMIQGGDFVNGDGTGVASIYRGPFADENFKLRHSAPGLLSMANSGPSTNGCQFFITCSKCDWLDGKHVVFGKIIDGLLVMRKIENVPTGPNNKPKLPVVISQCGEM
UniProt P30405, 45-207 limits assumed: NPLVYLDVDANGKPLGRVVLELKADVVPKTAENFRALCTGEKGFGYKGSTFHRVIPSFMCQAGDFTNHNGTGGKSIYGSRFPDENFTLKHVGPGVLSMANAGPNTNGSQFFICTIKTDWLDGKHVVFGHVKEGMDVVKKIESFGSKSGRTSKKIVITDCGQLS
UniProt Q08752, 1-183 limits assumed: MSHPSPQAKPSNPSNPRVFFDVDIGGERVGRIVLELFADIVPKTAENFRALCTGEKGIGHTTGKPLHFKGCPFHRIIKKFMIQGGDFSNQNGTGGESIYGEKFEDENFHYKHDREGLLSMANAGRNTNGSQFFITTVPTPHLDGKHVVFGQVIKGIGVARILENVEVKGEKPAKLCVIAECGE
UniProt P62937, whole entry: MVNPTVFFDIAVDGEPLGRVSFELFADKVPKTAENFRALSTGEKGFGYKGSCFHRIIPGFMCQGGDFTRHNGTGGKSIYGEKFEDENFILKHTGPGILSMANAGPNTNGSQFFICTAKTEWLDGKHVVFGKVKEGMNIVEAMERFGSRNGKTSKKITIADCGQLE
UniProt Q96BP3, 473-646 limits assumed: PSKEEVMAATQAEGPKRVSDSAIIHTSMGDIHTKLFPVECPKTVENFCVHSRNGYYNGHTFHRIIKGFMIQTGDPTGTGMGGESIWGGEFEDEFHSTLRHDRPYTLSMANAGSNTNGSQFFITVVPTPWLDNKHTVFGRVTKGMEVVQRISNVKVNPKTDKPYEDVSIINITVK
UniProt Q13427, 1-179 limits assumed: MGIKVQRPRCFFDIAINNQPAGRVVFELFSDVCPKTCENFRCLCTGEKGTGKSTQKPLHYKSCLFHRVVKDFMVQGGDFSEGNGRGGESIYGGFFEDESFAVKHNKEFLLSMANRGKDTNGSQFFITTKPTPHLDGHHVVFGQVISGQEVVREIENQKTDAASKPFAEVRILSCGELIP
UniProt P45877, 24-212 limits assumed: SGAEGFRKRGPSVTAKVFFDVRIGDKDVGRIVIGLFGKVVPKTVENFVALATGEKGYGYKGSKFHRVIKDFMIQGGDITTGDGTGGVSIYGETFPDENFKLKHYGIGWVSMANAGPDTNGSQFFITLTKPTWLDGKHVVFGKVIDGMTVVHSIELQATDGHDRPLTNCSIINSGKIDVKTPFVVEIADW
UniProt P30414, 7-179 limits assumed: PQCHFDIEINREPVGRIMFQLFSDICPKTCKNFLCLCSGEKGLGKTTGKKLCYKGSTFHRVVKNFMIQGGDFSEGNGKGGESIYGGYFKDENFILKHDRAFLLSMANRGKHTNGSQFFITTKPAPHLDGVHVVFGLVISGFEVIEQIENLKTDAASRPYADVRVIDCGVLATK
UniProt Q9Y3C6, whole entry: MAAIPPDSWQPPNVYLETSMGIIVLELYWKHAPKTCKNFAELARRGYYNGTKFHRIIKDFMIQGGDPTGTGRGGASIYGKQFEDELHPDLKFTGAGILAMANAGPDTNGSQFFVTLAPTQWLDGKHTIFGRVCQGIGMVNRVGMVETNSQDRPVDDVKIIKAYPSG

Key:
[1] = target: T1, CypE (Homo sapiens, UniProt Q9UNP9); assay: Competition anisotropy binding assay with A26-Fl
[2] = target: CypB (Homo sapiens, UniProt P23284); conditions: read-out: Wild-Type Cyclophilin Prolyl Isomerase Inhibition IC50 Values, CypB; wild-type CypB
[3] = target: CypH (Homo sapiens, UniProt O43447); assay: Chymotrypsin coupled prolyl-isomerase assay; assay type: biochemical
[4] = target: CypD (Homo sapiens, UniProt P30405); assay: Chymotrypsin coupled prolyl-isomerase assay; assay type: biochemical
[5] = target: Cyp40 (Homo sapiens, UniProt Q08752); assay: Chymotrypsin coupled prolyl-isomerase assay; assay type: biochemical
[6] = target: CypA (Homo sapiens, UniProt P62937); assay: Chymotrypsin coupled prolyl-isomerase assay; assay type: biochemical
[7] = target: PPWD1 (Homo sapiens, UniProt Q96BP3); assay: Chymotrypsin coupled prolyl-isomerase assay; assay type: biochemical
[8] = target: CypG (Homo sapiens, UniProt Q13427); assay: Chymotrypsin coupled prolyl-isomerase assay; assay type: biochemical
[9] = target: T1, CypE; assay: Chymotrypsin coupled prolyl-isomerase assay; assay type: biochemical
[10] = target: CypC (Homo sapiens, UniProt P45877); assay: Chymotrypsin coupled prolyl-isomerase assay; assay type: biochemical
[11] = target: NKTR (Homo sapiens, UniProt P30414); assay: Chymotrypsin coupled prolyl-isomerase assay; assay type: biochemical
[12] = target: PPIL1 (Homo sapiens, UniProt Q9Y3C6); assay: Chymotrypsin coupled prolyl-isomerase assay; assay type: biochemical
[13] = read-out: Wild-Type Cyclophilin Prolyl Isomerase Inhibition IC50 Values, CypH, wild-type CypH
[14] = read-out: Wild-Type Cyclophilin Prolyl Isomerase Inhibition IC50 Values, CypD, wild-type CypD
[15] = read-out: Wild-Type Cyclophilin Prolyl Isomerase Inhibition IC50 Values, CypA, wild-type CypA
[16] = read-out: IC50 PPWD1, prolyl-isomerase inhibition, 5 nM cyclophilin
[17] = read-out: Wild-Type Cyclophilin Prolyl Isomerase Inhibition IC50 Values, PPWD1, wild-type PPWD1
[18] = read-out: IC50 CypG, prolyl-isomerase inhibition, 5 nM cyclophilin
[19] = read-out: Wild-Type Cyclophilin Prolyl Isomerase Inhibition IC50 Values, CypG, wild-type CypG
[20] = read-out: IC50 CypC, prolyl-isomerase inhibition, 5 nM cyclophilin
[21] = read-out: Wild-Type Cyclophilin Prolyl Isomerase Inhibition IC50 Values, CypC, wild-type CypC
[22] = read-out: IC50 NKTR, prolyl-isomerase inhibition, 5 nM cyclophilin
[23] = read-out: Wild-Type Cyclophilin Prolyl Isomerase Inhibition IC50 Values, NKTR, wild-type NKTR
[24] = read-out: Wild-Type Cyclophilin Prolyl Isomerase Inhibition IC50 Values, PPIL1, wild-type PPIL1
[25] = read-out: Wild-Type Cyclophilin Prolyl Isomerase Inhibition IC50 Values, Cyp40, wild-type Cyp40
[26] = read-out: Wild-Type Cyclophilin Prolyl Isomerase Inhibition IC50 Values, CypE, wild-type CypE

Row | Structure (SMILES) | IC50 [2] | IC50 [3, 13] | IC50 [4, 14] | IC50 [5] | IC50 [6, 15] | IC50 [7, 17] | IC50 [8, 18] | IC50 [8, 19] | IC50 [10, 21] | IC50 [11, 23] | IC50 [12, 24] | IC50 [5, 25] | IC50 [9, 26] | also measured
1 | NC(=O)[C@@H]1CCNC(=O)/C=C/C(=O)N2CCC[C@](Cc3ccccc3)(C2)C(=O)N[C@@H](Cc2ccc(-c3ccc(C=O)cc3)cc2)C(=O)NCc2ccccc2CC(=O)N1 | 2000 nM | > 10 µM | 180 nM | 500 nM | 5000 nM | 5 µM | 7 µM | 7 µM | 3 µM | 2 µM | > 10000 nM |  |  | reduced potency relative to C3A ([1]; FP competition with A26-Fl, CypE): 16 fold; Ki ([1]; read-out: Ki CypE, FP competition with 0.5 nM A26-Fl, 24 h): 1200 nM; IC50 ([6]; read-out: IC50 CypA, prolyl-isomerase inhibition, 5 nM cyclophilin): 5000 nM; IC50 [7, 16]: 5 µM; IC50 ([9]; read-out: IC50 CypE, prolyl-isomerase inhibition, 5 nM cyclophilin): 1000 nM; IC50 [10, 20]: 3 µM; IC50 [11, 22]: > 10 µM; IC50 ([12]; read-out: IC50 PPIL1, prolyl-isomerase inhibition, 5 nM cyclophilin): 2000 nM
2 | CC(=O)c1cccc(-c2ccc(C[C@@H]3NC(=O)[C@]4(Cc5ccccc5)CCCN(C4)C(=O)/C=C/C(=O)NCC[C@@H](C(=O)NCCOCCN)NC(=O)Cc4ccccc4CNC3=O)cc2)c1 | 130 nM | 40 µM | 210 nM |  | 350 nM | 4.1 µM |  | > 100 µM | 0.7 µM | > 100 µM | 1100 nM | 300 nM | 900 nM | 
3 | NCCOCCNC(=O)[C@@H]1CCNC(=O)/C=C/C(=O)N2CCC[C@](Cc3ccccc3)(C2)C(=O)N[C@@H](Cc2ccc(-c3ccc4occc4c3)cc2)C(=O)NCc2ccccc2CC(=O)N1 | 200 nM | > 100 µM | 220 nM | 900 nM | 700 nM | 3.2 µM | 30 µM | 30 µM | 2.3 µM | 50 µM | 600 nM |  | 900 nM | IC50 [11, 22]: 50 µM
4 | NCCOCCNC(=O)[C@@H]1CCNC(=O)/C=C/C(=O)N2CCC[C@](Cc3ccccc3)(C2)C(=O)N[C@@H](Cc2ccc(-c3ccc4oc(C(=O)O)cc4c3)cc2)C(=O)NCc2ccccc2CC(=O)N1 | 160 nM | 50 µM | 40 nM | 3000 nM | 700 nM | 27 µM | 17 µM | 17 µM | 16 µM | 30 µM | 340 nM |  | 170 nM | IC50 ([3]; read-out: IC50 CypH, prolyl-isomerase inhibition, 5 nM cyclophilin): 50 µM; IC50 [7, 16]: 27 µM; IC50 [10, 20]: 16 µM; IC50 [11, 22]: 30 µM
5 | NCCOCCNC(=O)[C@@H]1CCNC(=O)/C=C/C(=O)N2CCC[C@](Cc3ccccc3)(C2)C(=O)N[C@@H](Cc2ccccc2)C(=O)NCc2ccccc2CC(=O)N1 | 160 nM | 12 µM | 370 nM | 1200 nM | 1500 nM | 14 µM |  | 3.7 µM | 1.2 µM | 8.1 µM | 2000 nM |  | 780 nM | 
6 | Cc1cc(C(=O)O)ccc1-c1ccc(C[C@@H]2NC(=O)[C@]3(Cc4ccccc4)CCCN(C3)C(=O)/C=C/C(=O)NCC[C@@H](C(=O)NCCOCCN)NC(=O)Cc3ccccc3CNC2=O)cc1 | 1100 nM | > 100 µM |  | 4000 nM | 1600 nM | > 100 µM |  | > 100 µM | 8 µM | > 100 µM | 11000 nM |  | 1400 nM | IC50 ([4]; read-out: IC50 CypD, prolyl-isomerase inhibition, 5 nM cyclophilin, Suc-AAPF-AMC, mean±s.e.m. of 3 technical replicates (B52, B53, C3A wild-type: mean±s.d. of 4 independent replicates)): 170 nM
7 | COC(=O)c1ccc(-c2ccc(C[C@@H]3NC(=O)[C@]4(Cc5ccccc5)CCCN(C4)C(=O)/C=C/C(=O)NCC[C@@H](C(=O)NCCOCCN)NC(=O)Cc4ccccc4CNC3=O)cc2)cc1 | 120 nM | 40 µM | 80 nM |  | 500 nM | 0.8 µM |  | 6 µM | 0.7 µM | 21 µM | 140 nM | 130 nM | 230 nM | 
8 | Cc1ccccc1-c1ccc(C[C@@H]2NC(=O)[C@]3(Cc4ccccc4)CCCN(C3)C(=O)/C=C/C(=O)NCC[C@@H](C(=O)NCCOCCN)NC(=O)Cc3ccccc3CNC2=O)cc1 | 300 nM | > 100 µM | 380 nM |  | 1200 nM | > 50 µM |  | > 50 µM | 0.46 µM | > 50 µM | 2400 nM | 400 nM | 3000 nM | 
9 | N#CCc1ccc(-c2ccc(C[C@@H]3NC(=O)[C@]4(Cc5ccccc5)CCCN(C4)C(=O)/C=C/C(=O)NCC[C@@H](C(=O)NCCOCCN)NC(=O)Cc4ccccc4CNC3=O)cc2)cc1C(=O)O | 110 nM | > 25 µM | 80 nM |  | 410 nM | 10 µM |  | > 25 µM | 13 µM | > 25 µM | 3000 nM | 10000 nM | 220 nM | IC50 [7, 16]: 10 µM; IC50 [10, 20]: 13 µM
10 | NCCOCCNC(=O)[C@@H]1CCNC(=O)/C=C/C(=O)N2CCC[C@](Cc3ccccc3)(C2)C(=O)N[C@@H](Cc2ccc(-c3ccc(S(=O)(=O)CC(=O)O)cc3)cc2)C(=O)NCc2ccccc2CC(=O)N1 | 400 nM | > 50 µM | 190 nM | 4000 nM | 3000 nM | > 50 µM | 40 µM | 40 µM | 37 µM | > 50 µM | 1000 nM |  | 800 nM | 
11 | NC(=O)[C@H]1CCNC(=O)/C=C/C(=O)N2CCC[C@@](Cc3ccccc3)(C2)C(=O)N[C@H](Cc2ccc(-c3ccc(C(CC(=O)O)CC(=O)O)cc3)cc2)C(=O)NCc2ccccc2CC(=O)N1 | > 50000 nM | > 50 µM | > 50000 nM | > 50000 nM | > 50000 nM | > 50 µM |  | > 50 µM | > 50 µM | > 50 µM | > 50000 nM |  | > 50000 nM | 
12 | NCCOCCNC(=O)[C@@H]1CCNC(=O)/C=C/C(=O)N2CCC[C@](Cc3ccccc3)(C2)C(=O)N[C@@H](Cc2ccc(-c3ccc(C(=O)C(=O)O)cc3)cc2)C(=O)NCc2ccccc2CC(=O)N1 | 400 nM | > 50 µM | 230 nM | 2300 nM | 1700 nM | 30 µM |  | > 50 µM | 16 µM | > 50 µM | 800 nM |  | 1200 nM | IC50 [7, 16]: 30 µM
13 | NCCOCCNC(=O)[C@@H]1CCNC(=O)/C=C/C(=O)N2CCC[C@](Cc3ccccc3)(C2)C(=O)N[C@@H](Cc2ccc(-c3ccc(OCC(=O)O)cc3)cc2)C(=O)NCc2ccccc2CC(=O)N1 | 180 nM | > 25 µM | 28 nM | 1300 nM | 500 nM | > 25 µM | 11 µM | 11 µM | > 25 µM | > 25 µM | 270 nM |  | 70 nM | 
14 | NCCOCCNC(=O)[C@@H]1CCNC(=O)/C=C/C(=O)N2CCC[C@](Cc3ccccc3)(C2)C(=O)N[C@@H](Cc2ccc(-c3ccc(C(N)=O)cc3)cc2)C(=O)NCc2ccccc2CC(=O)N1 | 220 nM | 40 µM | 110 nM |  | 700 nM | 3 µM |  | 40 µM | 1.9 µM | > 100 µM | 300 nM | 260 nM | 400 nM | 
